Reference: patent US9725426B2, “Cystathionine-γ-lyase (CSE) inhibitors” (SOVA PHARMACEUTICALS, INC., priority 2012, dated 2017)

The chains behind the UniProt entries cited, without tags or fusion partners.
UniProt P32929, whole entry, looked up: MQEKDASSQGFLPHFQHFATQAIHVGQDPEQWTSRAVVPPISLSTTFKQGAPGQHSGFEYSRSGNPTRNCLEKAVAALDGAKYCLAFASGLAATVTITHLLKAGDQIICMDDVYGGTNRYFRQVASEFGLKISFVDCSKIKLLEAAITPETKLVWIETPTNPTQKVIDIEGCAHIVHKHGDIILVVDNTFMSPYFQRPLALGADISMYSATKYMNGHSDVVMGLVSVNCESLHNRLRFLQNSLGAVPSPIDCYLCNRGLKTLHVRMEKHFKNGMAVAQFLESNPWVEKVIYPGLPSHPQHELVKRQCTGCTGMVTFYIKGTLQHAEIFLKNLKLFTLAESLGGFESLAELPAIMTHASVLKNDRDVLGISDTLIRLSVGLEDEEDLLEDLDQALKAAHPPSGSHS

molecular target: human, mouse or rat recombinant CSE (Homo sapiens, UniProt P32929)

| SMILES | IC50 [µM] |
| --- | --- |
| NNCC(=O)O [2-hydrazinylacetic acid hydrochloride] | < 10 |
| C#CCN(N)c1nnn[nH]1 [Example 3, 5-(1-(prop-2-ynyl)hydrazinyl)-1H-tetrazole] | < 10 |
| CCN(N)c1nnn[nH]1 [Example 4, 5-(1-ethylhydrazinyl)-1H-tetrazole] | < 10 |
| CC(C)N(N)c1nnn[nH]1 [Example 9] | > 100 |
| CN(N)c1nnn[nH]1 [Example 11, 5-(1-methylhydrazinyl)-1H-tetrazole] | < 10 |
| NCCCN(N)c1nnn[nH]1 [Example 12, 3-(1-(1H-tetrazol-5-yl)hydrazinyl)propan-1-amine dihydrochloride] | < 10 |
| NCCN(N)c1nnn[nH]1 [Example 13] | < 10 |
| CC(C)=NNc1nnn[nH]1 [Example 21] | < 10 |
| CN(N)c1nnn(C)n1 [Example 29, 2-methyl-5-(1-methylhydrazinyl)-2H-tetrazole] | > 100 |

Counter-ions that a name gives are not always drawn.
